According to article PMC10541190 (The Journal of Clinical Investigation, 2023):
Values joined by “and” are separate entries in the source; they are usually repeats but may differ in a detail not shown here. Equal values may be shown once. Read-outs that look alike come from different tables or passages of the source.

## O[C@H]1[C@H]2c3cc4c(cc3CN3CCC(=C[C@@H]1O)[C@H]23)OCO4 [Lyco-rine]
Vero cells; 0.625 μM
  Cell viability (%): 98.84%

## OC[C@H]1O[C@H]([S-])[C@H](O)[C@@H](O)[C@@H]1O.[Au+] [Aurothio-glucose]
U-87 MG cells; 0.37 µM
  U-87 MG cell viability (%): 96.62%
Huh7 cells; 3.33 µM
  Huh7 cell viability (%): 101.98%

## CC(=O)O[C@@H]1C[C@H]2C(C)(C)C(=O)C=C[C@]2(C)[C@H]2CC[C@@]3(C)[C@H](c4ccoc4)OC(=O)[C@H]4O[C@]43[C@@]21C [Gedunin]
Vero cells; 1.25 μM
  Cell viability (%): 101.81%

## CC(C)(C)c1cc(C=C(C#N)C#N)cc(C(C)(C)C)c1O [Tyrphos-tin A9]
Vero cells; 5 μM
  Cell viability (%): 101.86%

## CO[C@@H]1[C@@H](O[C@@H]2O[C@H](C)[C@@H](O[C@H]3C[C@@](C)(O)[C@@H](OC(=O)CC(C)C)[C@H](C)O3)[C@H](N(C)C)[C@H]2O)[C@@H](CC=O)C[C@@H](C)[C@@H](O)/C=C/C=C/C[C@@H](C)OC(=O)C[C@H]1OC(C)=O [Josamycin]
Huh7 cells; human, 3.33 µM
  Huh7 cell viability (%): 96.23%
Huh7 cells; human, 10 µM
  Huh7 cell viability (%): 98.66%

## CC(C)(C)c1cc(/C=C(\C#N)C(N)=S)cc(C(C)(C)C)c1O [Tyrphos-tin AG 879]
U-87 MG cells; human, 0.25 µM
  U-87 MG cell viability (%): 94.64%

## O=C1NCN(c2ccccc2)C12CCN(CCCC(c1ccc(F)cc1)c1ccc(F)cc1)CC2 [Fluspirilene]
Huh7 cells; human, 0.37 µM
  Huh7 cell viability (%): 95.78%

## Penitrem A
Vero cells; 0.625 μM
  Cell viability (%): 87.82% and 86.81% and 85.55%
Vero cells; 1.25 μM
  Cell viability (%): 93.58% and 92.84% and 89.98%
Vero cells; 5 μM
  Cell viability (%): 92.66% and 91.70% and 87.43%
Vero cells; 20 μM
  Cell viability (%): 101.66% and 99.49% and 98.85%
Vero cells; African green monkey
  CC50: > 20 µM

## CC(C)(C)c1cc(C=C(C#N)C#N)cc(C(C)(C)C)c1O [Tyrphostin A9]
U-87 MG cells; human, 0.25 µM
  U-87 MG cell viability (%): 94.64%

## CC(C)(C)c1cc(/C=C(\C#N)C(N)=S)cc(C(C)(C)C)c1O [Tyrphostin AG 879]
Huh7 cells; human, 10 µM
  Huh7 cell viability (%): 95.79%
